Two substances from patent US5789558 can be followed below.

Assay [1] has as its target Ras-CAIL.
Assay [2] addresses Ras-CVLS.

With “recombinant human GGTase-I (protein geranylgeranyltransferase type I) expressed in E. coli from pRD577 (from UniProt P49354) (enzyme)”, the rate of incorporation of [3H]prenyl into substrate protein (acid/ethanol insoluble radioactivity) (nmol · h^-1 · mg^-1) in assay [1] is 1060; in assay [2] it was less than 1.

In the case of “recombinant human FTase (protein farnesyltransferase) (from UniProt P49354) (enzyme)”, the figures for the rate of incorporation of [3H]prenyl into substrate protein (acid/ethanol insoluble radioactivity) (nmol · h^-1 · mg^-1) in assay [1] and in assay [2] were 66 and 840, respectively.
